Experimental data: US20260176254A1, “INHIBITORS OF PROSTATE SPECIFIC MEMBRANE ANTIGEN AND USE THEREOF” (SHANGHAI SINOTAU BIOTECH. CO., LTD, priority 2023, published 2026)

Columns and labels:
[1] = Tissue biodistribution in LnCAP tumor mouse model; set-up: species or system mice; conditions: male, SCID, in vivo, iv, total radioactivity
Source text: (§1) LnCAP and 22RV1 CDX xenograft tumor models were generated by inoculating 5×10^6 cells/site subcutaneously in male SCID or nude mice (Vital River), respectively. Animals were housed according to IACUC guidance and had accessed to food and water ad libitium. Animals were used for biodistribution study when the tumor dimensions reached around 0.2-0.3 cm^3. […] At each tome point, animals were sacrificed and tissues were collected, weighted, and subjected to radioactivity measurements using gamma counter. Radioactivity in the tissues was presented in % ID/g (percent of injected dose per gram).

[2] = Tissue biodistribution in 22Rv1 tumor mouse model; set-up: species or system mice; conditions: male, nude, in vivo, iv, total radioactivity
Source text: as §1

With O=C(O)CC[C@H](NC(=O)N[C@@H](CCCCNC(=O)[C@H](Cc1ccc2ccccc2c1)NC(=O)[C@H]1CC[C@H](CNC(=O)CN2CCN(CC(=O)O)CCN(CC(=O)O)CCN(CC(=O)O)CC2)CC1)C(=O)O)C(=O)O [[^177Lu]Lu-PSMA-617, metal not drawn, reference compound] the tissue uptake at 72 h ([1]; Tissue biodistribution: Blood) was 0.02 ± 0.01 %ID/g, the tissue uptake at 168 h ([1]; Tissue biodistribution: Blood) was 0.02 %ID/g and the tissue uptake at 24 h ([1]; Tissue biodistribution: Muscle) was 0.02 %ID/g. The tissue uptake dose at 168 h [2] was 0.2 %ID, the tissue uptake at 72 h ([2]; Tissue biodistribution: Blood) was 0.02 ± 0.02 %ID/g and the tissue uptake at 168 h ([2]; Tissue biodistribution: Blood) was 0.02 %ID/g. For the same compound, the tissue uptake at 24 h ([2]; Tissue biodistribution: Muscle) was 0.01 %ID/g.
